Data from US11124554B2, “Modified ligand-gated ion channels and methods of use” (Howard Hughes Medical Institute, priority 2016, dated 2021).
Like-named read-outs stand apart in the source and are kept apart here.

Amino acid sequences for entries named in this document (tags omitted). Chains listed by the source or under a name are the forms on record and can include a tag or linker.
UniProt P36544, with tags, fused parts or gaps T225I/M226I: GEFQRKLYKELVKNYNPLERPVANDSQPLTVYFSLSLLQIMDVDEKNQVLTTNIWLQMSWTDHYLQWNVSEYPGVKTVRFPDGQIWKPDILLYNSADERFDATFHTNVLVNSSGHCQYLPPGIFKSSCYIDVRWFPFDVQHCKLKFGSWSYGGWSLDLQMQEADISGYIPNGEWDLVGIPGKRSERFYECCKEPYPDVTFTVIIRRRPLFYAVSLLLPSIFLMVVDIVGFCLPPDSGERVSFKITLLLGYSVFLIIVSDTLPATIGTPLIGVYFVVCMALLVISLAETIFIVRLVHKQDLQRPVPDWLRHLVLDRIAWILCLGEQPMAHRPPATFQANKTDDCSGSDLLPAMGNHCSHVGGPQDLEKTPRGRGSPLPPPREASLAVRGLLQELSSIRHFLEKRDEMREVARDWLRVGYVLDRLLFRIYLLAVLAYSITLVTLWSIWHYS
UniProt P36544, with tags, fused parts or gaps Q79G/G175K: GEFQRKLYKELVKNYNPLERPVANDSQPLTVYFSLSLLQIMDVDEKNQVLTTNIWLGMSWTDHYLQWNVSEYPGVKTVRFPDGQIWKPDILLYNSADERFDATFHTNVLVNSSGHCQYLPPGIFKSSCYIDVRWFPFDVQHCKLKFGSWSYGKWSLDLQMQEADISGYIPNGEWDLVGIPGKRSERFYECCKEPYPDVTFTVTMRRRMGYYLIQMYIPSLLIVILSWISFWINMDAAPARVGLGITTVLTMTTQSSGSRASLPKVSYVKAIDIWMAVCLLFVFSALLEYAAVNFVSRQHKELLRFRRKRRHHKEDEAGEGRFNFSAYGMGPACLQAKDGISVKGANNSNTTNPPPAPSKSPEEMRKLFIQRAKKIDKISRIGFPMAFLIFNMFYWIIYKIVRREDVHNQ
UniProt P36544, with tags, fused parts or gaps L131G: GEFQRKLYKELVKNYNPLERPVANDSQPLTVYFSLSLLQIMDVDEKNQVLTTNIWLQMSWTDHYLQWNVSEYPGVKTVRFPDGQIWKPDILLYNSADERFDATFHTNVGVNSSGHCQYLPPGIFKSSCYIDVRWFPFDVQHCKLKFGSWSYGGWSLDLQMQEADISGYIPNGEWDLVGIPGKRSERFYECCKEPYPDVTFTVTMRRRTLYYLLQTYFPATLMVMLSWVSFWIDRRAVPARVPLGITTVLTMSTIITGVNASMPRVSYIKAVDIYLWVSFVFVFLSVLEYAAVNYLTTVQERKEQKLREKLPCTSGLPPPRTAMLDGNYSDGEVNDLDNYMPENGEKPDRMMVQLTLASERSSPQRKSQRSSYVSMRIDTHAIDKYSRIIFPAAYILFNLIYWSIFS
UniProt P36544, with tags, fused parts or gaps Q79A: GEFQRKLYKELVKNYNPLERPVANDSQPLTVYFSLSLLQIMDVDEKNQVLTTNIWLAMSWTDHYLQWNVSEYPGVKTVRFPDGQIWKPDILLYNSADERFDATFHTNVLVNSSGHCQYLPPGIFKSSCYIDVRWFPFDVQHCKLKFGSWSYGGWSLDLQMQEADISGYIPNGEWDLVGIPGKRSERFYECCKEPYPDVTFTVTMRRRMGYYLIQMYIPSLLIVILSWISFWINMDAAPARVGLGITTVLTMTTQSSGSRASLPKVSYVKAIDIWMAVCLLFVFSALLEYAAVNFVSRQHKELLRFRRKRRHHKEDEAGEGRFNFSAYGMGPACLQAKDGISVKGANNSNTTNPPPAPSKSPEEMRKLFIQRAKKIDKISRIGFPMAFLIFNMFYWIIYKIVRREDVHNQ
α7^Q79G,Y115F,G175K-GlyR (Homo sapiens, UniProt P36544, G175K/Q79G/Y115F), UniProt P36544, with tags, fused parts or gaps Q79G/Y115F/G175K: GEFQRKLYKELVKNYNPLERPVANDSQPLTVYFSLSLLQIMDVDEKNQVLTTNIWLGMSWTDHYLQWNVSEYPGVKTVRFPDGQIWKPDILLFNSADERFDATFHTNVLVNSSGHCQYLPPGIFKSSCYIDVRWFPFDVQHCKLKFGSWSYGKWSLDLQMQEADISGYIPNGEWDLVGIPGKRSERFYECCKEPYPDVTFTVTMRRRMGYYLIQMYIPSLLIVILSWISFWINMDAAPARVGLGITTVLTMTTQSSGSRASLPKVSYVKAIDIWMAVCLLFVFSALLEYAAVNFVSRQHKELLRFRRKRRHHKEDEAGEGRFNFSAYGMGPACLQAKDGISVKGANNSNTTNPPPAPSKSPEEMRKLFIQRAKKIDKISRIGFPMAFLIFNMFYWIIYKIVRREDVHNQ
UniProt P36544, with tags, fused parts or gaps R27D/E41R/Q79G/Y115F: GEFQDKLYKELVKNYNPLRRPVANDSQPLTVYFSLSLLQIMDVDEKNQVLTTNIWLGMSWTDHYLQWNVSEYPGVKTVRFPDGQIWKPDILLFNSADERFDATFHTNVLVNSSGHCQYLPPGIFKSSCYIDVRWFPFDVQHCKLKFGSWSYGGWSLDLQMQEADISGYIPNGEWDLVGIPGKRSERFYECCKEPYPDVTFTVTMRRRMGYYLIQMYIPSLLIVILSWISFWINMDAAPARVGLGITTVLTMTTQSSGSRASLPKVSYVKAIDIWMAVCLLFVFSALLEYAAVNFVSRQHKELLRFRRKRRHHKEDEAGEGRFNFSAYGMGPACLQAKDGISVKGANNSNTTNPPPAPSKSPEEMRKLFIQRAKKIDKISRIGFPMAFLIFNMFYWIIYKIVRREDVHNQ
UniProt P36544, with tags, fused parts or gaps Q79G/Y115F/G175K/Y210F: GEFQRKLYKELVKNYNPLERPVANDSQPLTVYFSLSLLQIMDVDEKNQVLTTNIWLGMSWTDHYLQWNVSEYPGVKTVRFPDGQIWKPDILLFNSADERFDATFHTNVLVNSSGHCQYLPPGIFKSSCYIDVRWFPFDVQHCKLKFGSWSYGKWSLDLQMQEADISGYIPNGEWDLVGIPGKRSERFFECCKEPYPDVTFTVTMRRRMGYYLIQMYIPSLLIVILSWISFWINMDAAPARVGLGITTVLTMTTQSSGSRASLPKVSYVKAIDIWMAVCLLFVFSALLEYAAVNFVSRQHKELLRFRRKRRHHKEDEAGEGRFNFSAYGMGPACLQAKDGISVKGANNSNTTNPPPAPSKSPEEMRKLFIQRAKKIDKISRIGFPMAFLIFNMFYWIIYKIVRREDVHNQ
UniProt P36544, with tags, fused parts or gaps G175K: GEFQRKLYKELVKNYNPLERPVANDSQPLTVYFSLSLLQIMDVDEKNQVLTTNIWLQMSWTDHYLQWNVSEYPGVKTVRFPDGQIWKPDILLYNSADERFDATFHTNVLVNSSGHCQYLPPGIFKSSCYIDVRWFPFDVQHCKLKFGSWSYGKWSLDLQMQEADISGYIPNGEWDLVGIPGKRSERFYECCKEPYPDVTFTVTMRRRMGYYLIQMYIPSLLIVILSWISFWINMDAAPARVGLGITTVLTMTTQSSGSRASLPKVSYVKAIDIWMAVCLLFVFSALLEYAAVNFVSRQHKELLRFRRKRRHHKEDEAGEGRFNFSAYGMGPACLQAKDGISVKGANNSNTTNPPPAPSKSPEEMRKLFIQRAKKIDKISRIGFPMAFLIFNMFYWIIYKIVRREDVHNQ
UniProt P36544, with tags, fused parts or gaps Y115F/G175S: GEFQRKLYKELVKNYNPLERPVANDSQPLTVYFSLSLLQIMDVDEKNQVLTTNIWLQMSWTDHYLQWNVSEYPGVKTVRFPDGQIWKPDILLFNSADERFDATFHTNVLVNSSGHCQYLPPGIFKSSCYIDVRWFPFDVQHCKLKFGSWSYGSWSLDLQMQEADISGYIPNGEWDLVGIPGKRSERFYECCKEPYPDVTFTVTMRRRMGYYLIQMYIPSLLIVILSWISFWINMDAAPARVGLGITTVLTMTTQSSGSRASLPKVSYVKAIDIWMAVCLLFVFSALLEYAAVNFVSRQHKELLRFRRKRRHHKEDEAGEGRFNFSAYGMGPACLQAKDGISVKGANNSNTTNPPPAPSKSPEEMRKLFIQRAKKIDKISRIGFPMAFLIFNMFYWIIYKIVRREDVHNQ
UniProt P36544, with tags, fused parts or gaps W77F/G175K/Y210F: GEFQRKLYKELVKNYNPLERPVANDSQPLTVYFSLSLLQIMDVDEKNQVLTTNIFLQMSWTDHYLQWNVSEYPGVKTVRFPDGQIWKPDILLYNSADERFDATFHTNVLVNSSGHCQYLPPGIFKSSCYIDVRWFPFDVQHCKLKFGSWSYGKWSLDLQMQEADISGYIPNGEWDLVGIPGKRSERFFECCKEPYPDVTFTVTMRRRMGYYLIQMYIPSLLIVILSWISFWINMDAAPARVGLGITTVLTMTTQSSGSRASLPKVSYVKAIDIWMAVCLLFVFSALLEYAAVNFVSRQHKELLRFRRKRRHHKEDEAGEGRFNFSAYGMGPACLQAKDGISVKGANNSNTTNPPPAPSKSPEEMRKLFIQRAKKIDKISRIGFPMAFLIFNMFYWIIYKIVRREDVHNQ
UniProt P36544, with tags, fused parts or gaps L131M: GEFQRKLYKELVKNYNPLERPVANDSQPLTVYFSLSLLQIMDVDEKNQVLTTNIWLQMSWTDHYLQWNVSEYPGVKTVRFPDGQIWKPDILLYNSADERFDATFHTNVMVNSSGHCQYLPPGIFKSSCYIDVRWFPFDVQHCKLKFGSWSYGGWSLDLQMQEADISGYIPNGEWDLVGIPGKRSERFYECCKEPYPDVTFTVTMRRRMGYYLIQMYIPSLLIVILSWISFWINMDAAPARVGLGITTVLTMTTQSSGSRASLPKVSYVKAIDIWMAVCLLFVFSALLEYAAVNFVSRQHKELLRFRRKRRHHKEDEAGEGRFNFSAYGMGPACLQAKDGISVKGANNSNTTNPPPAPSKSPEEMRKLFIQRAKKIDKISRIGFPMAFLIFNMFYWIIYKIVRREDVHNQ
UniProt P36544, with tags, fused parts or gaps L131G/D219A: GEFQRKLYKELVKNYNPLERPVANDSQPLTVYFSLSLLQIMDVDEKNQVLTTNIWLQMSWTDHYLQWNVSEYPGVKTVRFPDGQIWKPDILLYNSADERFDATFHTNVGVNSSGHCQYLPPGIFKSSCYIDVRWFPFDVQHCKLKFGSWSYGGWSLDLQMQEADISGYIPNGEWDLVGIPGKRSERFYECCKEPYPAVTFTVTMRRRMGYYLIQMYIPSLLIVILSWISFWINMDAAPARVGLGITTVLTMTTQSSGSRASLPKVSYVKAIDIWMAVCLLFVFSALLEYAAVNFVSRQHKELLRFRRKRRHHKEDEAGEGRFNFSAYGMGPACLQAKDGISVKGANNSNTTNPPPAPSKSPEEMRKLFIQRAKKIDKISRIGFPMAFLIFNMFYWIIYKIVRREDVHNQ
UniProt P36544, with tags, fused parts or gaps Y115F/G175R: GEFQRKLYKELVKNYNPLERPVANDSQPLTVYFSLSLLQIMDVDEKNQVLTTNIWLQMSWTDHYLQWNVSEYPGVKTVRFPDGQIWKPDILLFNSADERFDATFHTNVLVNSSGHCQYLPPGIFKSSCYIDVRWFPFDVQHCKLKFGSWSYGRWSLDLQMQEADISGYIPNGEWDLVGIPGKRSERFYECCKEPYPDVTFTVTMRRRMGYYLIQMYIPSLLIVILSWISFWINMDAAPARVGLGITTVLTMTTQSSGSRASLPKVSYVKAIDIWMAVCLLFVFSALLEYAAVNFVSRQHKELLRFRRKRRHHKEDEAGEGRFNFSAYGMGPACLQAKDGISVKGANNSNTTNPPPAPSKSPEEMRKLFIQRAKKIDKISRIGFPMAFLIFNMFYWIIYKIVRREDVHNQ
UniProt P36544, with tags, fused parts or gaps R27D/E41R/Q79G/Y115F/G175K: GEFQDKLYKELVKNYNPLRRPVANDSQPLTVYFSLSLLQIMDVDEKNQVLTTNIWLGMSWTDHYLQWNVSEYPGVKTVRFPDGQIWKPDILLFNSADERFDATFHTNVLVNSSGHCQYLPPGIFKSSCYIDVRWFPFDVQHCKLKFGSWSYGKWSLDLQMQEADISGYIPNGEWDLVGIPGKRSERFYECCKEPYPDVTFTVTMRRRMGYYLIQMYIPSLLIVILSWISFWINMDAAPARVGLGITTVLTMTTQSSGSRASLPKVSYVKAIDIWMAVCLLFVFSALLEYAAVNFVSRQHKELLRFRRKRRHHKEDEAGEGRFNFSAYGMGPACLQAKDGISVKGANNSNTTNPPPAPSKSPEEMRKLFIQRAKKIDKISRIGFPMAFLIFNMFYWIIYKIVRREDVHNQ
UniProt P36544, with tags, fused parts or gaps Y115F/G175A: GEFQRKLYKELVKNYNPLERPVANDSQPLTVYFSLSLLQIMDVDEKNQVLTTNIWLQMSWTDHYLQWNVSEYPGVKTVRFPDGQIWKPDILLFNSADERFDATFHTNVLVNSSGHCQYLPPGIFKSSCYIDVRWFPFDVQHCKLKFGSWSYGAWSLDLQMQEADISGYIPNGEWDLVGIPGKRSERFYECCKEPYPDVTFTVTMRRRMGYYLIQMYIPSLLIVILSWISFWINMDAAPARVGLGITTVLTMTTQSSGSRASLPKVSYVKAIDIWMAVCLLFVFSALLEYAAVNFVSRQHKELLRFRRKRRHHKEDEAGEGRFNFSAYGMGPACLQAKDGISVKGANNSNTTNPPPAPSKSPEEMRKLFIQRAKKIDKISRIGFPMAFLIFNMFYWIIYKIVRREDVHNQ
UniProt P36544, with tags, fused parts or gaps Q79G/L141F: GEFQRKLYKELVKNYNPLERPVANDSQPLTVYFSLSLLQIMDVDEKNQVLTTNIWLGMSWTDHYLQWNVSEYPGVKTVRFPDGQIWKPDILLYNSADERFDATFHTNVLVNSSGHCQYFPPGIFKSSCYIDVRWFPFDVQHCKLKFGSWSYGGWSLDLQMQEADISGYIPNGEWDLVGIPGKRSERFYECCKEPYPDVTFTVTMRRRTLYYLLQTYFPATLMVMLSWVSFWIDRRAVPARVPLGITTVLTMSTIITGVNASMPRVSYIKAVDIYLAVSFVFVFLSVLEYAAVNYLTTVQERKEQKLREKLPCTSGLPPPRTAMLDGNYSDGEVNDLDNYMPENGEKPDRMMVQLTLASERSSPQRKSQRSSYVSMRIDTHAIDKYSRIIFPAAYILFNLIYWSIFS

Key:
α7-5HT3 = biological target: T1, α7-5HT3 (Homo sapiens, UniProt P36544, M226I/T225I); assay: Agonist potency (EC50), HEK cells expressing chimeric channel; format: cell-based, human α7 nAChR LBD, murine 5HT3 IPD
T1 construct: expressed in transfected cells; host or cells: HEK cells

α7^Q79G,G175K-GlyR = biological target: T2, α7^Q79G,G175K-GlyR (Homo sapiens, UniProt P36544, G175K/Q79G); assay: Agonist potency at chimeric channel; format: cell-based; conditions: read-out: Agonist potency, α7GlyR Q79G G175K
T2 construct: expressed in transfected cells

α7^L131G-GABAc = biological target: T3, α7^L131G-GABAc (Homo sapiens, UniProt P36544, L131G); assay: Agonist potency at chimeric channel (Table 9); format: cell-based
T3 construct: expressed in transfected cells

α7^Q79A-GlyR = biological target: T4, α7^Q79A-GlyR (Homo sapiens, UniProt P36544, Q79A); assay: Agonist potency (EC50), HEK cells expressing chimeric channel; format: cell-based; conditions: read-out: Mean EC50 and SEM in parentheses, α7^Q79A-GlyR
T4 construct: expressed in transfected cells; host or cells: HEK cells

α7^Q79G,Y115F,G175K-GlyR = biological target: T5, α7^Q79G,Y115F,G175K-GlyR (Homo sapiens, UniProt P36544, G175K/Q79G/Y115F); assay: Agonist potency at chimeric channel; format: cell-based; conditions: read-out: Agonist potency, α7GlyR Q79G G175K Y115F
T5 construct: expressed in transfected cells

[1] = biological target: T6, α7GlyR R27D E41R Q79G Y115F (Homo sapiens, UniProt P36544, E41R/Q79G/R27D/Y115F); assay: Agonist potency at chimeric channel (Table 7); format: cell-based
T6 construct: expressed in transfected cells

[2] = biological target: T7, α7GlyR Q79G Y115F G175K Y210F (Homo sapiens, UniProt P36544, G175K/Q79G/Y115F/Y210F); assay: Agonist potency at chimeric channel; format: cell-based
T7 construct: expressed in transfected cells

α7^G175K-GlyR = biological target: T8, α7^G175K-GlyR (Homo sapiens, UniProt P36544, G175K); assay: Agonist potency at chimeric channel; format: cell-based; conditions: read-out: Agonist potency, α7GlyR G175K
T8 construct: expressed in transfected cells

α7^Y115F-GlyR G175S = biological target: T9, α7^Y115F-GlyR G175S (Homo sapiens, UniProt P36544, G175S/Y115F); assay: Agonist potency at chimeric channel (Table 8); format: cell-based; conditions: α7GlyR Y115F G175S
T9 construct: expressed in transfected cells

α7^W77F,G175K,Y210F-GlyR = biological target: T10, α7^W77F,G175K,Y210F-GlyR (Homo sapiens, UniProt P36544, G175K/W77F/Y210F); assay: Agonist potency at chimeric channel; format: cell-based; conditions: read-out: Agonist potency, α7GlyR W77F G175K Y210F
T10 construct: expressed in transfected cells

α7^L131M-GlyR = biological target: T11, α7^L131M-GlyR (Homo sapiens, UniProt P36544, L131M); assay: Agonist potency at chimeric channel (Table 9); format: cell-based
T11 construct: expressed in transfected cells

α7GlyR L131G D219A = biological target: T12, α7GlyR L131G D219A (Homo sapiens, UniProt P36544, D219A/L131G); assay: Agonist potency at chimeric channel (Table 9); format: cell-based
T12 construct: expressed in transfected cells

α7^Y115F-GlyR G175R = biological target: T13, α7^Y115F-GlyR G175R (Homo sapiens, UniProt P36544, G175R/Y115F); assay: Agonist potency at chimeric channel (Table 8); format: cell-based; conditions: α7GlyR Y115F G175R
T13 construct: expressed in transfected cells

[3] = biological target: T14, α7GlyR Q79G G175K Y115F R27D E41R (Homo sapiens, UniProt P36544, E41R/G175K/Q79G/R27D/Y115F); assay: Agonist potency at chimeric channel; format: cell-based
T14 construct: expressed in transfected cells

α7^Y115F-GlyR G175A = biological target: T15, α7^Y115F-GlyR G175A (Homo sapiens, UniProt P36544, G175A/Y115F); assay: Agonist potency at chimeric channel (Table 8); format: cell-based; conditions: α7GlyR Y115F G175A
T15 construct: expressed in transfected cells

α7GABAc (GABAA-ρ) W298A = biological target: T16, α7GABAc (GABAA-ρ) W298A (Homo sapiens, UniProt P36544, L141F/Q79G); assay: Agonist potency at chimeric channel (Table 7); format: cell-based
T16 construct: expressed in transfected cells

[4] = biological target: T17, α7GlyR Q79G Y115F G175K K322L (Homo sapiens, UniProt P36544, G175K/Q79G/Y115F); assay: Agonist potency at chimeric channel; format: cell-based
T17 construct: expressed in transfected cells

α7^W77F,Q79G,G175K-GlyR = biological target: T18, α7^W77F,Q79G,G175K-GlyR (Homo sapiens, UniProt P36544, G175K/Q79G/W77F); assay: Agonist potency at chimeric channel; format: cell-based; conditions: read-out: Agonist potency, α7GlyR W77F Q79G G175K
T18 construct: expressed in transfected cells

α7GlyR Q79G L131G = biological target: T19, α7GlyR Q79G L131G (Homo sapiens, UniProt P36544, L131G/Q79G); assay: Agonist potency at chimeric channel (Table 9); format: cell-based
T19 construct: expressed in transfected cells

α7^L131F-GlyR = biological target: T20, α7^L131F-GlyR (Homo sapiens, UniProt P36544, L131F); assay: Agonist potency at chimeric channel (Table 9); format: cell-based
T20 construct: expressed in transfected cells

α7^L131Q-GlyR = biological target: T21, α7^L131Q-GlyR (Homo sapiens, UniProt P36544, L131Q); assay: Agonist potency at chimeric channel (Table 9); format: cell-based
T21 construct: expressed in transfected cells

α7^G175K,Y210F-GlyR = biological target: T22, α7^G175K,Y210F-GlyR (Homo sapiens, UniProt P36544, G175K/Y210F); assay: Agonist potency at chimeric channel; format: cell-based; conditions: read-out: Agonist potency, α7GlyR G175K Y210F
T22 construct: expressed in transfected cells

α7^L131N-GlyR = biological target: T23, α7^L131N-GlyR (Homo sapiens, UniProt P36544, L131N); assay: Agonist potency at chimeric channel (Table 9); format: cell-based; conditions: α7GlyR L131N
T23 construct: expressed in transfected cells

[5] = biological target: T24, α7GlyR W77F Q79G Y115F G175K (Homo sapiens, UniProt P36544, G175K/Q79G/W77F/Y115F); assay: Agonist potency at chimeric channel; format: cell-based
T24 construct: expressed in transfected cells

α7^Q79S,L131G-GlyR = biological target: T25, α7^Q79S,L131G-GlyR (Homo sapiens, UniProt P36544, L131G/Q79S); assay: Agonist potency at chimeric channel (Table 9); format: cell-based
T25 construct: expressed in transfected cells

α7^Q79S-GlyR = biological target: T26, α7^Q79S-GlyR (Homo sapiens, UniProt P36544, Q79S); assay: Agonist potency (EC50), HEK cells expressing chimeric channel; format: cell-based; conditions: read-out: Mean EC50 and SEM in parentheses, α7^Q79S-GlyR
T26 construct: expressed in transfected cells; host or cells: HEK cells

[6] = biological target: T27, α7^L131G,Q139L,Y217F-5HT3 HC (Homo sapiens, UniProt P36544, L131G/M226I/Q139L/T225I/Y217F); assay: Agonist potency at chimeric channel (Table 9); format: cell-based; conditions: α75HT3 L131G Q139L Y217F HC
T27 construct: expressed in transfected cells

α7^Q79G-5HT3 = biological target: T28, α7^Q79G-5HT3 (Homo sapiens, UniProt P36544, M226I/Q79G/T225I); assay: Agonist potency (EC50), HEK cells expressing chimeric channel; format: cell-based, human α7 nAChR LBD, murine 5HT3 IPD
T28 construct: expressed in transfected cells; host or cells: HEK cells

[7] = biological target: T29, α7^L141F,Y115F,G175K-GlyR (Homo sapiens, UniProt P36544, G175K/L141F/Y115F); assay: Agonist potency at chimeric channel; format: cell-based; conditions: read-out: Agonist potency, α7GlyR Y115F G175K L141F
T29 construct: expressed in transfected cells

α7^Y115F,G175K-GlyR = biological target: T30, α7^Y115F,G175K-GlyR (Homo sapiens, UniProt P36544, G175K/Y115F); assay: Agonist potency at chimeric channel; format: cell-based
T30 construct: expressed in transfected cells

α7^Y115F-GlyR G175M = biological target: T31, α7^Y115F-GlyR G175M (Homo sapiens, UniProt P36544, G175M/Y115F); assay: Agonist potency at chimeric channel (Table 8); format: cell-based; conditions: α7GlyR Y115F G175M
T31 construct: expressed in transfected cells

α7^L131A-GlyR = biological target: T32, α7^L131A-GlyR (Homo sapiens, UniProt P36544, L131A); assay: Agonist potency at chimeric channel (Table 9); format: cell-based
T32 construct: expressed in transfected cells

α7^Y115F-GlyR G175F = biological target: T33, α7^Y115F-GlyR G175F (Homo sapiens, UniProt P36544, G175F/Y115F); assay: Agonist potency at chimeric channel (Table 8); format: cell-based; conditions: α7GlyR Y115F G175F
T33 construct: expressed in transfected cells

α7^Q79G,Q139L,G175K-GlyR = biological target: T34, α7^Q79G,Q139L,G175K-GlyR (Homo sapiens, UniProt P36544, G175K/Q139L/Q79G); assay: Agonist potency at chimeric channel; format: cell-based; conditions: read-out: Agonist potency, α7GlyR Q79G Q139L G175K
T34 construct: expressed in transfected cells

α7GlyR Y115F L131M = biological target: T35, α7GlyR Y115F L131M (Homo sapiens, UniProt P36544, L131M/Y115F); assay: Agonist potency at chimeric channel (Table 9); format: cell-based
T35 construct: expressed in transfected cells

α7^W77F,G175K-GlyR = biological target: T36, α7^W77F,G175K-GlyR (Homo sapiens, UniProt P36544, G175K/W77F); assay: Agonist potency at chimeric channel; format: cell-based; conditions: read-out: Agonist potency, α7GlyR W77F G175K
T36 construct: expressed in transfected cells

c1cnc2cc3c(cc2n1)[C@@H]1CNC[C@H]3C1 [Varenicline]
EC50 (α7-5HT3): 920 nM | EC50 (α7^Q79G,G175K-GlyR): 420 nM | EC50 (α7^L131G-GABAc): 300 nM | EC50 (α7^Q79A-GlyR): 480 nM | EC50 (α7^Q79G,Y115F,G175K-GlyR): > 10000 nM | EC50 [1]: > 30000 nM | EC50 [2]: > 30000 nM | EC50 (α7^G175K-GlyR): 56 nM | EC50 (α7^Y115F-GlyR G175S): 9700 nM | EC50 (α7^W77F,G175K,Y210F-GlyR): > 9000 nM | EC50 (α7^L131M-GlyR): 530 nM | EC50 (α7GlyR L131G D219A): 780 nM | EC50 (α7^Y115F-GlyR G175R): 7600 nM | EC50 [3]: 4900 nM | EC50 (α7^Y115F-GlyR G175A): 5900 nM | EC50 (α7GABAc (GABAA-ρ) W298A): 6270 nM | EC50 [4]: > 30000 nM | EC50 (α7^W77F,Q79G,G175K-GlyR): 3300 nM | EC50 (α7GlyR Q79G L131G): > 10000 nM | EC50 (α7^L131F-GlyR): 2600 nM | EC50 (α7^L131Q-GlyR): 720 nM | EC50 (α7^G175K,Y210F-GlyR): 4300 nM | EC50 (α7^L131N-GlyR): 69 nM | EC50 [5]: > 10000 nM | EC50 (α7^Q79S,L131G-GlyR): 7 nM | EC50 (α7^Q79S-GlyR): 280 nM | EC50 [6]: 7 nM | EC50 (α7^Q79G-5HT3): 910 nM | EC50 [7]: > 8100 nM | EC50 (α7^Y115F,G175K-GlyR; read-out: Agonist potency): 5000 nM | EC50 (α7^Y115F,G175K-GlyR; read-out: Agonist potency, α7GlyR Y115F G175K): 5000 nM | EC50 (α7^Y115F-GlyR G175M): 14100 nM | EC50 (α7^L131A-GlyR): 82 nM | EC50 (α7^Y115F-GlyR G175F): 13600 nM | EC50 (α7^Q79G,Q139L,G175K-GlyR): 960 nM | EC50 (α7GlyR Y115F L131M): > 100000 nM | EC50 (α7^W77F,G175K-GlyR): 570 nM
